Laboratory results taken from ChEMBL document CHEMBL2448811, “Comparison of the accuracy of experimental and predicted pKa values of basic and acidic compounds” (Pharm Res, 2013).

Test: physchem

`CC/C(=C(\c1ccccc1)c1ccc(OCCN(C)C)cc1)c1ccccc1` [TAMOXIFEN] gave a pKa of 8.48.
